Measurements reported in PubChem BioAssay AID1996.
Converted amounts (≈) assume the structure as drawn. Some tests of the compounds listed are not included; inactive here does not mean inactive elsewhere.

Conditions: buffer; pH 7.4; 200.0 µM

| SMILES | solubility kinetic |
| --- | --- |
| COc1ccc(Cl)cc1C(=O)NCC1(N(C)C)CCCCC1 | 46.4 µg/mL (≈ 143 µM) |
| COc1ccc(C(=O)NCC2(N(C)C)CCCCC2)cc1 | > 43.6 µg/mL |
| CC(C)Oc1ccc(C(=O)NCC2(N(C)C)CCCCC2)cc1 | > 47.8 µg/mL |
| CN(C)c1ccc(C(=O)NCC2(N(C)C)CCCCC2)cc1 | > 45.5 µg/mL |
| O=C(NCC1(N2CCCCC2)CCCCC1)c1cccc(Cl)c1 | > 50.2 µg/mL |
| COc1cccc(C(=O)NCC2(N3CCCCC3)CCCCC2)c1 | > 49.6 µg/mL |
| CN(C)C1(CNC(=O)c2ccc(Br)cc2)CCCCC1 | 42.8 µg/mL (≈ 126 µM) |
| Cc1ccc(C(=O)NCC2(N3CCCCC3)CCCCC2)cc1 | > 47.2 µg/mL |
| Cc1ccccc1C(=O)NCC1(N2CCCCC2)CCCCC1 | > 47.2 µg/mL |
| COc1cc(SC)ccc1C(=O)NCC1(N(C)C)CCCCC1 | > 50.5 µg/mL |
